Experimental data: ChEMBL document CHEMBL1143696, “Comparative molecular field analysis of the binding of the stereoisomers of fenoterol and fenoterol derivatives to the beta2 adrenergic receptor” (J Med Chem, 2007)
The source made the active and inactive calls. The calls are words filed in the database; no cut-off is given here.

Test system: Ventricular myocyte
Assay: Cardiomyocyte contractility in Sprague-Dawley rat ventricular myocytes assessed as shortening of cell length after electrical stimulation
Assay type: functional, cell-based

C[C@@H](Cc1ccc(O)cc1)NC[C@@H](O)c1cc(O)cc(O)c1
Activity: inactive
